{"sequences": {"note": "By UniProt entry, the sequences of proteins in these tests, tags left out. Residues count along the entry.", "UniProt P04626, 23-1255 limits assumed": "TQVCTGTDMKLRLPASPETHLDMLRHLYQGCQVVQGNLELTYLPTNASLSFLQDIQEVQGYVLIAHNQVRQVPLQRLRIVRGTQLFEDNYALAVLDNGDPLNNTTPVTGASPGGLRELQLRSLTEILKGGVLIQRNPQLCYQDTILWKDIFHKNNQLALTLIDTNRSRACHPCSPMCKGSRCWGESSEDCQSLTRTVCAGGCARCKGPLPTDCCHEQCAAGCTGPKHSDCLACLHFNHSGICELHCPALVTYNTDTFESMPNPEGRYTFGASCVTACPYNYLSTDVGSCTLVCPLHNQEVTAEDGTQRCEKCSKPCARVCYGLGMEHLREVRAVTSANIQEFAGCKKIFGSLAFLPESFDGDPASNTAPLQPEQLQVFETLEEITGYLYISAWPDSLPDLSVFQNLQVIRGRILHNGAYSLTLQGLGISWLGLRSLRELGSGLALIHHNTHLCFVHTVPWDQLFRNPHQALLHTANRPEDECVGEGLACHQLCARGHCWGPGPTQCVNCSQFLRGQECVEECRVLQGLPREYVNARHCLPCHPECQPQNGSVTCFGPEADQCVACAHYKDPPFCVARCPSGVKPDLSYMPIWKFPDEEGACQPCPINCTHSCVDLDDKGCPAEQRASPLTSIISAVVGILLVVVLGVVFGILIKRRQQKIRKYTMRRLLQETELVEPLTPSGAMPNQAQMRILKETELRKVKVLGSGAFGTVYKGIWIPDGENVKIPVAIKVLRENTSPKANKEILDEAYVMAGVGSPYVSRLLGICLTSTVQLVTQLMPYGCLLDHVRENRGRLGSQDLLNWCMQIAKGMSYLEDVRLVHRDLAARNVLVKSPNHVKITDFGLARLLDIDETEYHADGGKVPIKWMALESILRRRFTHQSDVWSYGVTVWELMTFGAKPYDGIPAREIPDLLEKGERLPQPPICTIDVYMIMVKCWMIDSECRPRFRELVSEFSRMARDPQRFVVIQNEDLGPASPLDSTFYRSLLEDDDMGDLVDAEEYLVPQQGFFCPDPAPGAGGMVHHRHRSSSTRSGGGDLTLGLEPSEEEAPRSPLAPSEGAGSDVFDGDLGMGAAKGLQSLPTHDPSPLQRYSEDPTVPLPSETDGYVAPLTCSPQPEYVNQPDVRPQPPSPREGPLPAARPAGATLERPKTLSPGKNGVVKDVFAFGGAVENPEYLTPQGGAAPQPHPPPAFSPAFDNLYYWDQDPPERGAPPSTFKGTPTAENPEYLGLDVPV", "UniProt P08183, whole entry": "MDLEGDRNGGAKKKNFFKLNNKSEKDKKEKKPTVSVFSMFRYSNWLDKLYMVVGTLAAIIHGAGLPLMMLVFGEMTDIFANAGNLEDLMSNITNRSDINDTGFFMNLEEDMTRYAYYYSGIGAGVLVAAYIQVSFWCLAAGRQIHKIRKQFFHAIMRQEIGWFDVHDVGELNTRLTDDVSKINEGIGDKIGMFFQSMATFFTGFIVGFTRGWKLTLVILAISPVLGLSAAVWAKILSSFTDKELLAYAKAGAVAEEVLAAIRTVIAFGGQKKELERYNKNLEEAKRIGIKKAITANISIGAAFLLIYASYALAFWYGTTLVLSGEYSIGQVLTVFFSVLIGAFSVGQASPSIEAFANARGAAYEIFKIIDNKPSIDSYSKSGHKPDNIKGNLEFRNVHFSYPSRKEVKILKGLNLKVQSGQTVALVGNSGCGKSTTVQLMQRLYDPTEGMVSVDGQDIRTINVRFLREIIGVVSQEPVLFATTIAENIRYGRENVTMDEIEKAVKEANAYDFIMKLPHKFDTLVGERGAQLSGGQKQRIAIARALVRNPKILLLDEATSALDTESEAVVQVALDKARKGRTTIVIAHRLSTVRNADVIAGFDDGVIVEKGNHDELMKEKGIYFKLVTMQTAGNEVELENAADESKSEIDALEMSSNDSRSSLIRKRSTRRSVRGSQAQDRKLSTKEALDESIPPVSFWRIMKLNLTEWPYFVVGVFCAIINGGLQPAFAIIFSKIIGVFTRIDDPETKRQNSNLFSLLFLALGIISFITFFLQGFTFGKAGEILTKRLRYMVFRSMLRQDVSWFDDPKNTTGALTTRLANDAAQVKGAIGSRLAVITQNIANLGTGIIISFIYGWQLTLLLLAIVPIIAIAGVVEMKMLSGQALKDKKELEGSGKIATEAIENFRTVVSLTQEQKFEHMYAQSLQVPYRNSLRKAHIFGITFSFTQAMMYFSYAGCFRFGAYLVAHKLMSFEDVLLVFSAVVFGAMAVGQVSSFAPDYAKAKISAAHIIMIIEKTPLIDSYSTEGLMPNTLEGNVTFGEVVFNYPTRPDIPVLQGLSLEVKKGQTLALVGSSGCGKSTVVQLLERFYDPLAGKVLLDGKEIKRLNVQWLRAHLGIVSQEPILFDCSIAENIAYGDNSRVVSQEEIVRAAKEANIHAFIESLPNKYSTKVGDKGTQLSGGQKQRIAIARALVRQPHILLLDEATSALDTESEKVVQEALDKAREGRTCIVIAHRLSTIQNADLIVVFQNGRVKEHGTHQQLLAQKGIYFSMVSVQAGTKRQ"}, "source": "paper PMC10327353", "about": "(Breast Cancer Research : BCR, 2023)", "key": {"[1]": {"target": "T1, HER2 (Homo sapiens, UniProt P04626)", "test": "pHER2 MSD assay in BT474C1 cells", "type": "cell-based", "conditions": "read-out: pHER2 IC50; BT474C1, 4 hrs treatment"}, "[2]": {"target": "P-gp (MDR1) (Homo sapiens, UniProt P08183)", "test": "P-gp efflux ratio, bi-directional transport assay"}, "[3]": {"system": "BT474C1 cells", "test": "Cell proliferation assay (CellTiter-Glo), BT474C1", "conditions": "BT474C1, 72 hrs"}, "[4]": {"target": "T1, HER2", "test": "In vitro HER2 enzymatic assay (Lance Ultra Kinase Assay)", "conditions": "read-out: IC50 against HER2 in the enzymatic assay; recombinant HER2, 2 mM ATP"}, "[5]": {"test": "In vivo CNS-PK study in monkey", "conditions": "single PO dose of DZD1516 30 mg/kg"}, "[6]": {"system": "P-gp-BCRP", "test": "P-gp-BCRP efflux ratio, cellular transport assay", "type": "in vitro ADME, human"}, "[7]": {"test": "Phase 1 study: CSF penetration (Kp,uu,CSF)"}, "[8]": {"test": "Human hepatocyte intrinsic clearance", "type": "in vitro ADME", "conditions": "human hepatocytes"}, "[9]": {"test": "Phase 1 study: plasma pharmacokinetics"}}, "note": "Marks after values point to notes of the source that are not given here.", "data": [{"molecule": "Cc1cc(Nc2ncnc3cccc(OC4CCN(C)CC4(F)F)c23)ccc1Oc1ccn2ncnc2c1", "note": "(single isomer, unassigned) [Cpd-3]", "values": [{"measurement": "IC50", "setting": "[1]", "result": 11, "unit": "nM"}, {"measurement": "Efflux ratio P-gp @1 µM", "setting": "[2]", "result": 0.84}, {"measurement": "GI50", "setting": "[3]", "result": 25, "unit": "nM"}]}, {"molecule": "COc1cc(O[C@H]2CCNCC2(F)F)c2c(Nc3ccc(Oc4ccn5ncnc5c4)c(C)c3)ncnc2c1", "values": [{"measurement": "IC50", "setting": "[4]", "result": 0.95, "unit": "nM"}, {"measurement": "Kp,uu,CSF", "setting": "[5]", "result": 0.865}, {"measurement": "Efflux ratio P-gp-BCRP @1 µM", "setting": "[6]; 1 µM", "result": 6.5}, {"measurement": "active efflux via P-gp and BCRP", "setting": "[6]; in vitro", "result": "do not undergo active efflux via P-gp and BCRP in vitro"}, {"measurement": "CSF conc", "setting": "[7]; 50 mg, subject 1", "result": 0.549, "unit": "nmol/L"}, {"measurement": "Free plasma conc", "setting": "[7]; 50 mg, subject 1", "result": 2.52, "unit": "nM"}, {"measurement": "Kp,uu,CSF", "setting": "[7]; 50 mg, subject 1", "result": 0.218}, {"measurement": "CSF conc", "setting": "[7]; 50 mg, subject 2", "result": 1.12, "unit": "nmol/L"}, {"measurement": "Free plasma conc", "setting": "[7]; 50 mg, subject 2", "result": 1.47, "unit": "nM"}, {"measurement": "Kp,uu,CSF", "setting": "[7]; 50 mg, subject 2", "result": 0.765}, {"measurement": "CSF conc", "setting": "[7]; 100 mg, subject 3", "result": 3.15, "unit": "nmol/L"}, {"measurement": "Free plasma conc", "setting": "[7]; 100 mg, subject 3", "result": 7.23, "unit": "nM"}, {"measurement": "Kp,uu,CSF", "setting": "[7]; 100 mg, subject 3", "result": 0.436}, {"measurement": "CSF conc", "setting": "[7]; 100 mg, subject 4", "result": 2.10, "unit": "nmol/L"}, {"measurement": "Free plasma conc", "setting": "[7]; 100 mg, subject 4", "result": 1.31, "unit": "nM"}, {"measurement": "Kp,uu,CSF", "setting": "[7]; 100 mg, subject 4", "result": 1.6}, {"measurement": "CSF conc", "setting": "[7]; 100 mg, subject 5", "result": 1.65, "unit": "nmol/L"}, {"measurement": "Free plasma conc", "setting": "[7]; 100 mg, subject 5", "result": 1.66, "unit": "nM"}, {"measurement": "Kp,uu,CSF", "setting": "[7]; 100 mg, subject 5", "result": 0.995}, {"measurement": "CSF conc", "setting": "[7]; 200 mg, subject 6", "result": 3.95, "unit": "nmol/L"}, {"measurement": "Free plasma conc", "setting": "[7]; 200 mg, subject 6", "result": 7.20, "unit": "nM"}, {"measurement": "Kp,uu,CSF", "setting": "[7]; 200 mg, subject 6", "result": 0.549}, {"measurement": "CSF conc", "setting": "[7]; 250 mg, subject 7", "result": 3.88, "unit": "nmol/L"}, {"measurement": "Free plasma conc", "setting": "[7]; 250 mg, subject 7", "result": 9.15, "unit": "nM"}, {"measurement": "Kp,uu,CSF", "setting": "[7]; 250 mg, subject 7", "result": 0.424}, {"measurement": "CSF conc", "setting": "[7]; 250 mg, subject 8", "result": 9.13, "unit": "nmol/L"}, {"measurement": "Free plasma conc", "setting": "[7]; 250 mg, subject 8", "result": 8.58, "unit": "nM"}, {"measurement": "Kp,uu,CSF", "setting": "[7]; 250 mg, subject 8", "result": 1.06}, {"measurement": "mean Kp,uu,CSF", "setting": "[7]; patients with CNS metastases", "result": 0.76}, {"measurement": "Human Heps Clint", "setting": "[8]", "result": "7.7 (µL/min)/(10^6 cells)"}, {"measurement": "Efflux ratio P-gp @1 µM", "setting": "[2]", "result": 2.8}, {"measurement": "GI50", "setting": "[3]", "result": 13, "unit": "nM"}, {"measurement": "AUC0-10, Geometric Mean [CV%]", "setting": "[9]; Day 1, 250 mg DZD1516", "result": "3400 [51.89] hr*ng/mL"}, {"measurement": "AUC0-72, Geometric Mean [CV%]", "setting": "[9]; Day 1, 250 mg DZD1516", "result": "7146 [48.56] hr*ng/mL"}, {"measurement": "Cmax, Geometric Mean [CV%]", "setting": "[9]; Day 1, 250 mg DZD1516", "result": "738.0 [61.14] ng/mL"}, {"measurement": "t1/2, Mean (SD)", "setting": "[9]; Day 1, 250 mg DZD1516", "result": "13.36 (4.503)^a hr"}, {"measurement": "tmax, Median (Min, Max)", "setting": "[9]; Day 1, 250 mg DZD1516", "result": "5.867 (1.97,7.97) hr"}, {"measurement": "AUC0-10, Geometric Mean [CV%]", "setting": "[9]; Day 15, 250 mg BID DZD1516", "result": "4401 [55.16] hr*ng/mL"}, {"measurement": "Css,max, Geometric Mean [CV%]", "setting": "[9]; Day 15, 250 mg BID DZD1516", "result": "724.0 [44.98] ng/mL"}, {"measurement": "Css,min, Geometric Mean [CV%]", "setting": "[9]; Day 15, 250 mg BID DZD1516", "result": "237.1 [57.36] ng/mL"}, {"measurement": "tss,max, Median (Min, Max)", "setting": "[9]; Day 15, 250 mg BID DZD1516", "result": "2.383 (0.000,4.00) hr"}, {"measurement": "MRAUC, Mean (SD)", "setting": "[9]; Day 15, 250 mg BID, DZ2678(AUC0-10)/DZD1516(AUC0-10)", "result": "0.5970 (0.1106)"}]}]}
